This note sets out measurements from patent publication US20230091225A1, “Bifunctional chimeric heterocyclic compounds for targeted degradation of androgen receptors and use thereof” (HINOVA PHARMACEUTICALS INC., priority 2019, published 2023).

Amino acid sequences for entries named in this document (tags omitted). A change or cut given only in a name is not applied to a line headed by its entry.
UniProt P10275: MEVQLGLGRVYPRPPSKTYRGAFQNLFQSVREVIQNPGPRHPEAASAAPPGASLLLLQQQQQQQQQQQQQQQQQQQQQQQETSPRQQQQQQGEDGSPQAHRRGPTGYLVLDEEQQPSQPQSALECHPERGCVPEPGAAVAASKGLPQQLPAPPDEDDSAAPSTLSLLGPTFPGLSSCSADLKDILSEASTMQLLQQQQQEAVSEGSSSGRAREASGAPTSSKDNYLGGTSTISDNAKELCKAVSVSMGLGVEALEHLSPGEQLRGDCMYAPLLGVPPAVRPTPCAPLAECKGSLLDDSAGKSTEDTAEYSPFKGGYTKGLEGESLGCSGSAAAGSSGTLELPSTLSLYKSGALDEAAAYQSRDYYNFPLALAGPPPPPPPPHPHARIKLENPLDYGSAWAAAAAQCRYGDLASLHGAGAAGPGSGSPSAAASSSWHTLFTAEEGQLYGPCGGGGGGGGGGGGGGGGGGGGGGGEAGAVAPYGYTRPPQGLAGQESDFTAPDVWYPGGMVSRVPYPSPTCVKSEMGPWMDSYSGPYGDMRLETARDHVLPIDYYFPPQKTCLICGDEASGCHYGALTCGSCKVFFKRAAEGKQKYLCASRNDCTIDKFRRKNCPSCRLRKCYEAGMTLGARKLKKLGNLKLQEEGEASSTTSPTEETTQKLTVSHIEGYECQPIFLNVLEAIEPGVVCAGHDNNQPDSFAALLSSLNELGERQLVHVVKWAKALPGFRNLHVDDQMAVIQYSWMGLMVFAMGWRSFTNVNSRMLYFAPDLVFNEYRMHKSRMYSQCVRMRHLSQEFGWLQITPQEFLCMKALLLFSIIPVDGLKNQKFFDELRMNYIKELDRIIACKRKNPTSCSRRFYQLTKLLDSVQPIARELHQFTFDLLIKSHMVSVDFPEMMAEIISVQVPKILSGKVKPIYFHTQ

The test addresses androgen receptor (AR) (Homo sapiens, UniProt P10275). Kind of test: Degradation of androgen receptor (AR) protein in VCaP cells by ELISA. The class given is cell-based.

For “N-((1r,4r)-4-(3-chloro-4-cyanophenoxy)cyclohexyl)-5-(2-(2,6-dioxopiperidin-3-yl)-1,3-dioxoisoindolin-5-yl)piperidine-4-yl)-2,7-diazaspiro[3.5]nonan-7-yl)pyrazine-2-carboxamide [Compound 288]”, the DC50 was less than 10 nM and the “Dmax (%)” value is “++++ (key: A: >80%; B: 79%-50%; C: 49%-25%; D: <25%)”.

A word on the DC50: it is the midpoint of the concentration-degradation curve. A lower DC50 goes with degradation at low concentration.
